Assay results from patent US11673867B2, “Sulfonamide derivative or pharmaceutically acceptable acid-addition salt” (University of Tsukuba, priority 2017, dated 2023).

Sequences of proteins named here, by UniProt entry; tags and fusion partners are left off.
UniProt O43614, whole entry: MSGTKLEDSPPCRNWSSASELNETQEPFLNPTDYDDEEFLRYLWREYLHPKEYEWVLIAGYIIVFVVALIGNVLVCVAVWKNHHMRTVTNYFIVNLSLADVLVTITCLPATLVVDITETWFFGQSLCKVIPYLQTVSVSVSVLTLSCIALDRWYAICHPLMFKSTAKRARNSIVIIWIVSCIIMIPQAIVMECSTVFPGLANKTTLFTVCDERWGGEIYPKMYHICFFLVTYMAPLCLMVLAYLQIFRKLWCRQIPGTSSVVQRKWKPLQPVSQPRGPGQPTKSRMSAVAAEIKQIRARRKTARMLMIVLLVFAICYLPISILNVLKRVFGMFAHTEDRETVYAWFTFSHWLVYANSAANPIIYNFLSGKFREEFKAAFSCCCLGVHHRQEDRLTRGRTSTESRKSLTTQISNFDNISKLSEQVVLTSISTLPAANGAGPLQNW

Target: human OX2R (Homo sapiens, UniProt O43614)
Test: Evaluation of agonist activity against OX2R (intracellular calcium, Fura-2AM, FDSS7000, CHOOX2R cells)
Conditions: read-out: EC50 (agonist activity value); CHO cells expressing human OX2R; calcium fluorescence ratio 340/380 nm; 10^-11.5 M to 10^-5 M
Method: Evaluation of Agonist Activity Against OX2R
NAFT-luciferase gene and human OX2R gene were constitutively expressed in CHO cell, which is a cell line derived from Chinese hamster ovary to establish a cell line (CHOOX2R). The cells were seeded in a 96-well Multiplate at 10,000 cells/well and cultured in a 5% FBS (Thermo Scientific)-added DMEM medium (Sigma-Aldrich) for 48 hr. The medium was removed, an assay buffer (20 mM HEPES (Sigma-Aldrich), Hanks' balanced salt solution (Gibco), 0.1% BSA (Sigma-Aldrich), 2.5 mM probenecid acid (Wako Pure Chemical Industries, Ltd.)) (100 μL) containing 4 μM Fura-2AM (Cayman Chemical) was added, and the cells were incubated for 60 min. The buffer containing Fura-2AM was removed, and an assay buffer (75 μL) was added. An assay buffer (25 μL) containing a test compound was added thereto to start the reaction. Changes in the intracellular calcium ion concentration due to the reaction were measured by measuring the fluorescence intensity ratio by dual wavelength excitation at 340 and 380 nm, by using FDSS7000 (Hamamatsu Photonics K.K.). The test compound was dissolved in DMSO to 10 mM, and diluted with the assay buffer to a final concentration of 10^−11.5 M to 10^−5 M (final concentration of DMSO 1%).

Row | EC50 [µM] | Compound
1 | 0.043 | CCCCOc1ccc(N2CCCN(c3cccc(NS(=O)(=O)c4cc(-c5cccc(C(=O)N(C)C)c5)ccc4OC)c3)C2=O)cc1
2 | 0.00447 | CCCOc1ccc(N2CCCN(c3cccc(NS(=O)(=O)c4cc(-c5cccc(C(=O)N(C)C)c5)ccc4OC)c3)C2=O)cc1
